## Experimental melting point values from OPERA 2.9

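These are experimental values that the OPERA curators gathered from public databases to train and test their QSAR models. A listed value is a point estimate from one report or more. Method and conditions are not stated for these values. The measured form (salt, isomer or mixture) is not always the one drawn. Unmarked limits or estimates from the upstream databases cannot be ruled out.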

The melting point is given in degrees Celsius.
"via" names the databases from which the curators took the value.

* Nc1nnc(C23CC4CC(CC(C4)C2)C3)s1 [5-Adamantan-1-yl-[1,3,4]thiadiazol-2-ylamine]: MP 198 °C (via OCHEM)
* Cn1c(N)c(C(=O)CCl)c(=O)n(C)c1=O: MP 186 °C (via OCHEM)
* O=c1cc(CCl)nc2ccccn12 [2-(chloromethyl)-4H-pyrido[1,2-a]pyrimidin-4-one]: MP 174 °C (via OCHEM)
* CCc1nc2ccccc2n1CC(=O)O [(2-Ethyl-1H-benzimidazol-1-yl)acetic acid]: MP 233 °C (via OCHEM)
* CCN(CC)S(=O)(=O)c1ccc(N2CCOCC2)c(N)c1 [3-Amino-N,N-diethyl-4-(morpholin-4-yl)benzene-1-sulfonamide]: MP 95 °C (via OCHEM)
* O[C@@H]([C@H](O)[C@H](O)CBr)[C@H](O)CBr [Dibromomannitol]: MP 176.9 °C (via PubChem)
* Clc1ccc(Oc2ccc(Cl)c(Cl)c2Cl)c(Cl)c1 [2,2',3,4,4'-Pentachlorodiphenylether]: MP 66 °C (via QSARDB)
* CC(C)c1ccc(-c2nnc(N)s2)cc1 [5-[4-(Propan-2-yl)phenyl]-1,3,4-thiadiazol-2-amine]: MP 206 °C (via OCHEM)
* Cc1sc2ncnc(N)c2c1C [5,6-Dimethylthieno(2,3-d)pyrimidin-4-amine]: MP 258 °C (via OCHEM)
* O=[N+]([O-])c1ccc(-c2nnc(CCl)o2)cc1 [2-(Chloromethyl)-5-(4-nitrophenyl)-1,3,4-oxadiazole]: MP 129 °C (via OCHEM)
* O=C(O)c1ccc(-c2ccccc2Cl)o1 [5-(2-chlorophenyl)-2-furoic acid]: MP 211 °C (via OCHEM)
* CC(=O)NC(CC(=O)O)c1ccccc1 (centres undefined) [3-Acetamido-3-phenylpropanoic acid]: MP 166 °C (via OCHEM)
* CCC(CC)(CBr)CBr [Pentane, 3,3-bis(bromomethyl)-]: MP 39.5 °C (via OCHEM)
* COC(=O)c1n[nH]c(=O)c2ccccc12 [Methyl 4-oxo-3,4-dihydrophthalazine-1-carboxylate]: MP 128 °C (via OCHEM)
* FC(F)(F)C(F)(F)C(F)(F)C(F)(F)C(F)(F)C(F)(F)C(F)(F)C(F)(F)CCc1ccc(P(c2ccccc2)c2ccccc2)cc1: MP 83 °C (via ChemicalBook)
* Cc1cc(C(=O)O)c2ccc(F)cc2n1 [7-Fluoro-2-methylquinoline-4-carboxylic acid]: MP 268 °C (via OCHEM)
* O=C(O)Cc1csc(-c2ccccc2Cl)n1 [[2-(2-chlorophenyl)-1,3-thiazol-4-yl]acetic acid]: MP 107 °C (via OCHEM)
* Nc1nncc(-c2ccc(Br)cc2)n1 [5-(4-bromophenyl)-1,2,4-triazin-3-amine]: MP 259 °C (via OCHEM)
* COc1cccc(N2CC(C(=O)O)CC2=O)c1 (centres undefined) [1-(3-methoxyphenyl)-5-oxopyrrolidine-3-carboxylic acid]: MP 167 °C (via OCHEM)
* COc1ccc2c(c1)CC(C(=O)O)CO2 (centres undefined) [6-Methoxychroman-3-carboxylic acid]: MP 121 °C (via OCHEM)
* COc1cc(F)c(C=O)cc1F [2,5-difluoro-4-methoxybenzaldehyde]: MP 98.5 °C (via OCHEM)
* COC(=O)C(=O)CC(=O)c1ccc(-c2ccccc2)cc1 [Methyl 4-([1,1'-biphenyl]-4-yl)-2,4-dioxobutanoate]: MP 143 °C (via OCHEM)
* Nc1ccccc1C(=O)NCCc1ccccc1 [2-amino-n-phenethyl-benzamide]: MP 111 °C (via OCHEM)
* CC(C)(C)c1ccc(C(=O)Nc2ccccc2N)cc1 [N-(2-aminophenyl)-4-tert-butylbenzamide]: MP 176 °C (via OCHEM)
* O=C(O)C1(O)CCCCC1 [1-Hydroxycyclohexanecarboxylic acid]: MP 103 °C (via OCHEM)
* Clc1ccc(-c2ccc(Cl)cc2Cl)c(Cl)c1: MP 83 °C (via QSARDB)
* CCc1n[nH]c(=S)n1N [4-amino-5-ethyl-4H-1,2,4-triazole-3-thiol]: MP 144 °C (via OCHEM)
* O=c1c(O[C@@H]2O[C@H]([C@H](O)CO)[C@H](O)[C@H]2O)c(-c2ccc(O)c(O)c2)oc2cc(O)cc(O)c12 [Isoquercitrin]: MP 226 °C (via OCHEM)
* O=C(O)c1ccc(S(=O)(=O)N2CCOCC2)cc1 [4-(Morpholine-4-sulfonyl)-benzoic acid]: MP 288 °C (via OCHEM)
* Cc1nc(Cl)c2c3c(sc2n1)CCC3: MP 92 °C (via OCHEM)
* O=[N+]([O-])c1cc([N+](=O)[O-])c(Nc2ncc(C(F)(F)F)cc2Cl)c(C(F)(F)F)c1: MP 90 °C (via OCHEM)
* CC(=O)NCc1ccc(S(N)(=O)=O)cc1 [N-((4-(Aminosulphonyl)phenyl)methyl)acetamide]: MP 171 °C (via OCHEM)
* OCc1cn(-c2ccccc2)nc1-c1ccccc1 [(1,3-diphenyl-1h-pyrazol-4-yl)-methanol]: MP 92 °C (via OCHEM)
* COCCCN1CCC(NC(=O)c2cc(Cl)c(N)c3c2OCC3)CC1 [Prucalopride]: MP 196 °C (via PubChem)
* CCOC(=O)c1c(N)sc(C(=O)N(C)C)c1C: MP 120 °C (via OCHEM)

Source: data files of OPERA 2.9 (Mansouri et al.), github.com/kmansouri/OPERA.